Experimental data as given in ChEMBL document CHEMBL1135617, “Dicarboxylic acid bis(L-prolyl-pyrrolidine) amides as prolyl oligopeptidase inhibitors” (J Med Chem, 2002).

Sequences of proteins named here, by UniProt entry; tags and fusion partners are left off. A change or cut given only in a name is not applied to a line headed by its entry.
UniProt P23687: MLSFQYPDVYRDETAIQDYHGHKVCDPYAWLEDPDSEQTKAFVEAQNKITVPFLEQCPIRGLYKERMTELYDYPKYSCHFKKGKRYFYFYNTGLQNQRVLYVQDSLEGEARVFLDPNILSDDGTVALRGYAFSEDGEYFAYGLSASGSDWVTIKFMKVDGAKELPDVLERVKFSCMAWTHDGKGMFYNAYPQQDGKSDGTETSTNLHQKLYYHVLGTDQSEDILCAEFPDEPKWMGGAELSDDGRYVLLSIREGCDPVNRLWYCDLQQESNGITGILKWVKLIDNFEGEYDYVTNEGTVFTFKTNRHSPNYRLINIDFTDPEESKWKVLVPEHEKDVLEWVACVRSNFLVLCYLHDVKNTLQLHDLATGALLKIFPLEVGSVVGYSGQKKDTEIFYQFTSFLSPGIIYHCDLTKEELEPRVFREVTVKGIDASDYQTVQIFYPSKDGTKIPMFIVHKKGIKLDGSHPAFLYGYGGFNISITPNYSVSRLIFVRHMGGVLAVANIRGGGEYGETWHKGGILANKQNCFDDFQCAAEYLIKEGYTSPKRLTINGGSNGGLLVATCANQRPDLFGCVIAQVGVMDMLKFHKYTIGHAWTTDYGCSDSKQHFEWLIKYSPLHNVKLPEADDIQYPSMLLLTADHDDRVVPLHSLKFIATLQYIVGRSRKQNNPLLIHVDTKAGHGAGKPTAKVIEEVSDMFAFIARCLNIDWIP

Tests used:
Prolyl endopeptidase [1] = target: T1, Prolyl endopeptidase (Sus scrofa, UniProt P23687); experiment: In vitro inhibitory activity against prolyl oligopeptidase (POP) from pig brain; value ranges from (38-62)
Prolyl endopeptidase [2] = target: T1, Prolyl endopeptidase

O=C(C1CCCN1C(=O)CCCC(=O)N1CCC[C@H]1C(=O)N1CCCC1)N1CCCC1 (some centres not stated)
pIC50 (Prolyl endopeptidase [1]): 7.32

N#C[C@@H]1CCCN1C(=O)[C@@H]1CCCN1C(=O)c1cccc(C(=O)N2CCCC2C(=O)N2CCCC2)c1 (some centres not stated)
pIC50 (Prolyl endopeptidase [2]): 8.82

pIC50: −log10 of the molar value.
